Reported properties for industrial, environmental and drug-like chemicals

From the experimental data distributed with OPERA 2.9.

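The numbers are reported measurements, compiled and curated for the OPERA QSAR suite. A listed value is a point estimate from one report or more. How each value was measured is not recorded, so precision varies. Where a salt, mixture or single isomer is drawn, the source does not say that exactly this form was tested. Some entries may be limits or estimates that an upstream database listed as plain numbers.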

The melting point is given in degrees Celsius. The boiling point refers to atmospheric pressure (760 mmHg), by the definition of the set. logP is the log10 of the octanol-water partition coefficient; higher is more lipophilic. Water solubility is log10 of mol/L, nominally at 25 °C; higher is more soluble. Vapor pressure is log10 of mmHg; the set covers 15 to 30 °C, mostly 20 to 25 °C. The Henry's law constant is on a log10 scale in atm·m3/mol (set defined at 25 °C); higher favours air over water. The unbound fraction in human plasma runs from 0 (all bound) to 1 (all free). Clint is human hepatic intrinsic clearance in µL/min per million cells; 0 means that no clearance was seen. "–" marks a cell with nothing listed here.

| compound | name | MP (°C) | BP (°C) | logP | water solubility (log10 mol/L) | vapor pressure (log10 mmHg) | log Henry constant (log10 atm·m3/mol) | fraction unbound | hepatic Clint (µL/min/10^6 cells) |
|---|---|---|---|---|---|---|---|---|---|
| c1ccc2sc(SNC3CCCCC3)nc2c1 | N-Cyclohexyl-2-benzothiazolesulfenamide | – | – | 5 | -5.917 | -6.469 | – | – | – |
| CCN(CC)C(=O)SCc1ccc(Cl)cc1 | Thiobencarb | – | – | – | – | – | -6.44 | – | 233 |
| Nc1ccc(/N=N/c2ccccc2)cc1 | 4-Aminoazobenzene | – | – | – | -3.79 | – | – | 0.0171 | – |
| CCc1ccc(C(=O)NN(C(=O)c2cc(C)cc(C)c2)C(C)(C)C)cc1 | Tebufenozide | – | – | – | – | – | -9.187 | 0.0333 | 22.4 |
| CN(C)C(=O)C(c1ccccc1)c1ccccc1 | Diphenamid | – | – | 2.17 | – | – | – | 0.301 | 0 |
| CC[C@@H](C(N)=O)N1CCCC1=O | – | – | – | – | – | -5.591 | – | 0.9167 | – |
| CN(C)C(=O)Nc1ccc(Cl)cc1 | Monuron | – | – | – | – | – | – | 0.4551 | 3.086 |
| C=C(C)C1CC=C(C=O)CC1 (stereo not given) | Perillaldehyde | – | – | – | -2.97 | -1.334 | – | – | – |
| C/C(=CC(=O)OC(C)C)/OP(=S)(NCC)OC (stereo partly drawn) | – | – | – | – | – | – | – | 0.01148 | 16.24 |
| CC1([C@@]2(O)CC[C@H]3[C@@H]4C=CC5=CC(=O)C=C[C@]5(C)[C@H]4CC[C@@]32C)OCCO1 | 20,20-Ethylenedioxy-17-hydroxy-1,4,6-pregnatrien-3-one | – | – | 3.47 | -4.341 | – | – | – | – |
| CC(C)(Cl)CCl | 1,2-Dichloro-2-methylpropane | – | 106 | – | – | 1.449 | – | – | – |
| CC(C)CC(C)OP(=S)([S-])OC(C)CC(C)C.CC(C)CC(C)OP(=S)([S-])OC(C)CC(C)C.[Zn+2] (stereo not given) | – | -12 | – | 2.21 | -3.56 | -4.084 | – | – | – |
| CCOP(=S)(OCC)Oc1nc(Cl)c(Cl)cc1Cl | Chlorpyrifos | – | 160 | – | – | – | – | 0.007932 | 2.6 |
| O=S(=O)(O)C(F)(F)C(F)(F)C(F)(F)C(F)(F)F | Perfluorobutanesulfonic acid | – | – | – | -2.77 | – | – | – | 1.152 |
| Brc1cc(Br)c(Oc2ccc(Br)c(Br)c2)c(Br)c1 | 2,3',4,4',6-Pentabromodiphenyl Ether | 86.5 | – | 6.71 | -11.8 | -6.417 | – | – | – |
| Brc1ccccc1-c1ccccc1Br | 2,2'-Dibromobiphenyl | – | – | 4.6 | -6.101 | -4.155 | – | – | – |
| CCC(C)(C)C(=O)OC1=C(c2ccc(Cl)cc2Cl)C(=O)OC12CCCCC2 | Spirodiclofen | – | – | – | -6.921 | – | -6.705 | – | 44.6 |
| F/C(=C\Cl)C(F)(F)F | (1Z)-1-Chloro-2,3,3,3-tetrafluoroprop-1-ene | – | – | 2.4 | -2.439 | – | – | – | – |
| CCCC[N+](CCCC)(CCCC)CCCC.[I-] | Tetrabutylammonium iodide | – | – | 0.869 | -2.056 | – | – | – | – |
| FC(F)(F)c1ccc(Cl)cc1 | 1-Chloro-4-(trifluoromethyl)benzene | – | – | 3.7 | -3.728 | – | – | – | – |
| CCc1cc(C)cc(CC)c1-c1c(OC(=O)C(C)(C)C)n2n(c1=O)CCOCC2 | Pinoxaden | 121 | – | 3.2 | -3.26 | – | – | – | – |
| CNC(=O)N(C)c1nnc(C(C)(C)C)s1 | Tebuthiuron | – | – | – | – | – | – | 0.4175 | 5.28 |
| O=C(Cc1ccccc1)N/C(=N\OCC1CC1)c1c(C(F)(F)F)ccc(F)c1F | Cyflufenamid | – | – | – | -5.9 | -6.575 | -6.557 | – | – |
| O=c1oc2ccccc2c(O)c1C1CC(c2ccc(OCc3ccc(C(F)(F)F)cc3)cc2)Cc2ccccc21 (stereo not given) | Flocoumafen | – | – | 6.12 | -5.719 | -12 | – | – | – |
| CC(C)N(C(C)C)P(OCCC#N)N(C(C)C)C(C)C | – | 12.7 | – | – | – | -3.356 | – | – | – |
| C[C@H]1CC(=O)C[C@@H]2CC[C@H]3[C@@H]4CC[C@H](O)[C@@]4(C)CC[C@@H]3[C@]21C | Mesterolone | – | – | 3.61 | -5.006 | – | – | – | – |
| COC(C)(C)CC(C)(C#N)N=NC(C)(C#N)CC(C)(C)OC (stereo not given) | – | – | – | 2.3 | -2.548 | – | – | – | – |
| COc1cc(OC)nc(Oc2cccc(Oc3nc(OC)cc(OC)n3)c2C(=O)[O-])n1.[Na+] | Bispyribac-sodium | – | – | – | -0.848 | -10.38 | – | 0.0106 | – |
| CC(C)(C)C(=O)O[C@H]1CC[C@@]2(C)C(=C[C@H](O)[C@H]3[C@@H]4[C@@H](OC(=O)C(C)(C)C)CC(=O)[C@@]4(C)CC[C@@H]32)C1 | 7beta-Hydroxy-3beta,15alpha-dipivaloyloxy-5-androsten-17-one | – | – | 5.57 | -5.212 | – | – | – | – |

A selection of 5 entries from above:

| compound | name | MP (°C) | BP (°C) | logP | water solubility (log10 mol/L) | vapor pressure (log10 mmHg) | log Henry constant (log10 atm·m3/mol) | fraction unbound | hepatic Clint (µL/min/10^6 cells) |
|---|---|---|---|---|---|---|---|---|---|
| CC(C)(Cl)CCl | 1,2-Dichloro-2-methylpropane | – | 106 | – | – | 1.449 | – | – | – |
| CN(C)C(=O)Nc1ccc(Cl)cc1 | Monuron | – | – | – | – | – | – | 0.4551 | 3.086 |
| COc1cc(OC)nc(Oc2cccc(Oc3nc(OC)cc(OC)n3)c2C(=O)[O-])n1.[Na+] | Bispyribac-sodium | – | – | – | -0.848 | -10.38 | – | 0.0106 | – |
| C/C(=CC(=O)OC(C)C)/OP(=S)(NCC)OC (stereo partly drawn) | – | – | – | – | – | – | – | 0.01148 | 16.24 |
| CC(C)(C)C(=O)O[C@H]1CC[C@@]2(C)C(=C[C@H](O)[C@H]3[C@@H]4[C@@H](OC(=O)C(C)(C)C)CC(=O)[C@@]4(C)CC[C@@H]32)C1 | 7beta-Hydroxy-3beta,15alpha-dipivaloyloxy-5-androsten-17-one | – | – | 5.57 | -5.212 | – | – | – | – |